Experimental data as given in patent US12409171B2, “Pharmaceutically active pyrazolo-pyridone modulators of DCN1/2-mediated cullin neddylation” (UNIVERSITY OF KENTUCKY RESEARCH FOUNDATION, priority 2019, dated 2025).
Like-named read-outs stand apart in the source and are kept apart here.

Amino acid sequences for entries named in this document (tags omitted).
UniProt Q96GG9, whole entry: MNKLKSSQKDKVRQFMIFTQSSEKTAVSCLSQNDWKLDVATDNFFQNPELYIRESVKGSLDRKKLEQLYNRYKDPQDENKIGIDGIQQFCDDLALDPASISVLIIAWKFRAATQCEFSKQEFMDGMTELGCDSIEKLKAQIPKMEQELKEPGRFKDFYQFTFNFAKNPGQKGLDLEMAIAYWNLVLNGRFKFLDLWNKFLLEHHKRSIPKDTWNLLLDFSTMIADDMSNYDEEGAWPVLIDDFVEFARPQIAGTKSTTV

Target: DCN1 (Homo sapiens (Human), UniProt Q96GG9)
Assay: TR-FRET binding assay (biotin-DCN1 / Ac-UBE2M12-AlexaFluor488)
Settings: diastereomer on branched alkyl group
[1] = read-out: IC50 (μM) (TR-FRET), TLC-down diastereomer, TLC-down

Row | Compound | IC50 [1] [µM] | IC50 (read-out: IC50 (μM) (TR-FRET), TLC-up diastereomer, TLC-up) [µM]
1 | CCC(C)n1nc(C)c2c1NC(=O)[C@@H](NC(=O)c1cccc(C)c1)[C@H]2c1ccc(F)cc1 (single isomer, unassigned) | 0.6 | 0.7
2 | CCC(C)n1nc(C)c2c1N(CC)C(=O)[C@@H](NC(=O)c1cccc(C)c1)[C@H]2c1ccc(F)cc1 (single isomer, unassigned) | 0.5 | –
